Values of other authors in publication PMC8224742, “Evaluation of 1β-Hydroxylation of Deoxycholic Acid as a Non-Invasive Urinary Biomarker of CYP3A Activity in the Assessment of Inhibition-Based Drug–Drug Interaction in Healthy Volunteers” (Journal of Personalized Medicine, 2021).

Test system: CYP3A
Conditions: following 400 mg of FKZ ingestion; cited from earlier work

OC(Cn1cncn1)(Cn1cncn1)c1ccc(F)cc1F [FKZ, fluconazole]
fold increase of MDZ AUC: 2–3 fold
